# This is a selection; strong and weak results do not stand in their true shares. Some tests of the compounds listed are not included; inactive here does not mean inactive elsewhere. Active and inactive are the calls of the source.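 Rule for the calls: active = mean inhibition of the replicates above the hit cutoff set in the primary screen (cut at about 17% in these data); inactive = the rest.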
# Sequences of proteins named here, by UniProt entry; tags and fusion partners are left off.
# UniProt Q9HAT2, whole entry: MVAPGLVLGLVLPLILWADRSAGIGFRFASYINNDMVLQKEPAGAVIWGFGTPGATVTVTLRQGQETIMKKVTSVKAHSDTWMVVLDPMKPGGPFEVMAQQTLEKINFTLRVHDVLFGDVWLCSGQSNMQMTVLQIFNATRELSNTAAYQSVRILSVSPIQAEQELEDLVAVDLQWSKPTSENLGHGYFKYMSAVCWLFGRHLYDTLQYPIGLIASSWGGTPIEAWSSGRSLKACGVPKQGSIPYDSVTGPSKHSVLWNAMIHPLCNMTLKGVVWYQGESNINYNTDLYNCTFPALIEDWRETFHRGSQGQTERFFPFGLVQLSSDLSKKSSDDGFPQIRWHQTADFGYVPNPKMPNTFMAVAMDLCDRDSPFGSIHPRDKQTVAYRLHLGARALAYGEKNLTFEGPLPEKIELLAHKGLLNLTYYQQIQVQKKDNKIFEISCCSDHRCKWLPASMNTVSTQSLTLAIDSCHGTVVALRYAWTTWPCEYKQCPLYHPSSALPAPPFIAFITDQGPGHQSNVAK
# Target: Sialate O-acetylesterase (Homo sapiens) (UniProt Q9HAT2)
# Test: human SIAE inhibitors, retest, confirmation, biochemical, fluorescence polarization, FP-Rh probe, triplicate (AID 1117263);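 note: 0% = SIAE with DMSO and probe and 100% = probe without SIAE; inhibitors lower polarization as more probe stays unbound to SIAE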
# Settings: SIAE FP-Rh activity-based probe, at 9.66 µM, stronger effect = higher value
row,Structure (SMILES),inhibition
1,CC(C)N1C(=O)CC2(CCN(CCOC(=O)C(O)(c3ccccc3)c3ccccc3)CC2)C1=O,inactive: -0.19%
